{
  "sequences": {"note": "By UniProt entry, the sequences of proteins in these tests, tags left out.", "UniProt P35968, whole entry": "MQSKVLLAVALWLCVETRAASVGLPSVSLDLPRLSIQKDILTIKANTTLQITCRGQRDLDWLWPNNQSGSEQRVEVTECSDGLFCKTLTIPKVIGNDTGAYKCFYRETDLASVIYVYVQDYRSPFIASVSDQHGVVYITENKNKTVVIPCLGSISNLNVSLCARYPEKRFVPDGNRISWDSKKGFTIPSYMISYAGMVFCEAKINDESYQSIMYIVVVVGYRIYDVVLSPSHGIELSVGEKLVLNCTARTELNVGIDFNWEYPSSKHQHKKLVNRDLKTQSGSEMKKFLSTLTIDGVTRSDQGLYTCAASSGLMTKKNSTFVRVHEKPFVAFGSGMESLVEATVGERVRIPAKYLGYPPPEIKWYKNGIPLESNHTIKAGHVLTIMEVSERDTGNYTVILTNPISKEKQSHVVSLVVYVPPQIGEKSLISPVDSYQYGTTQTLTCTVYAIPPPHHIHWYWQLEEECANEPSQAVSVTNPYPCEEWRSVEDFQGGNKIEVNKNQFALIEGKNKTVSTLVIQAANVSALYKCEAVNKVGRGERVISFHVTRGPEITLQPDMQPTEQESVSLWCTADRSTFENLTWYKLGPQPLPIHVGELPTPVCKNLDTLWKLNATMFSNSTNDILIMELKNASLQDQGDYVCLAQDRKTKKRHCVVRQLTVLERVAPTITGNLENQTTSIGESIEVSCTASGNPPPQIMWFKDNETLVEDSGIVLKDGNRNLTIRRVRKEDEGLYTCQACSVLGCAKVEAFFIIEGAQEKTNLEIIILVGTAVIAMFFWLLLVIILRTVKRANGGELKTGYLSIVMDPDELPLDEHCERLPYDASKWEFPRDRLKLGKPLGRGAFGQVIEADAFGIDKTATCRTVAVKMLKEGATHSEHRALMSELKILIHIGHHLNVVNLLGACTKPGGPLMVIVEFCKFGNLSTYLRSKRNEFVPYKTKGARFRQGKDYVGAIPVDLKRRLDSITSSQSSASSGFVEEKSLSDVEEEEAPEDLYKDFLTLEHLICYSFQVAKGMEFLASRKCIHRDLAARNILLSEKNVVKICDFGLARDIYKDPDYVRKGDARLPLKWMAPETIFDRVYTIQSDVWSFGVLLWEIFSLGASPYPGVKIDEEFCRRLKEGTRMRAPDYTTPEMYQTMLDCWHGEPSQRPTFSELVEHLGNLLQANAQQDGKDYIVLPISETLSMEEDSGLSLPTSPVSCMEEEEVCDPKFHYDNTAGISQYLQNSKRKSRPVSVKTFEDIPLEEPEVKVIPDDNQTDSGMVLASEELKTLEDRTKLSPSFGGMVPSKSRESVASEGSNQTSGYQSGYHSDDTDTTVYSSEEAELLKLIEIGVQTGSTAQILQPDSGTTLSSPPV"},
  "source": "ChEMBL document CHEMBL3860107",
  "about": "“Discovery of [5-Amino-1-(2-methyl-3H-benzimidazol-5-yl)pyrazol-4-yl]-(1H-indol-2-yl)methanone (CH5183284/Debio 1347), An Orally Available and Selective Fibroblast Growth Factor Receptor (FGFR) Inhibitor” (J Med Chem, 2016)",
  "target": "Vascular endothelial growth factor receptor 2 (Homo sapiens, UniProt P35968)",
  "data": [
    {"smiles": "Nc1c(C(=O)c2cc3ccccc3[nH]2)cnn1-c1ccc2[nH]ccc2c1", "values": [
      {"measurement": "IC50", "value": 52, "unit": "nM"}
    ]}
  ]
}
